## Apparent affinities of Ab-14 variants for a coronavirus HR2 peptide

Values reported by Li et al. 2023, doi:10.1038/s41467-023-39022-2 (FLAb copy).

The target is the same throughout: PDVDLGDISGINAS, from the HR2 region of SARS-CoV-2 spike.

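The parent was found by panning a naive human phage display library on the peptide. The variants were designed computationally from a first round of random CDR variants and then made and measured. Group labels follow the data file (Ctrl: baseline library sampled from a position-specific scoring matrix, with some repeated check sequences; En: ensemble of fine-tuned language models; GP: Gaussian process model; HC: hill climbing; Gen: genetic algorithm; Gibbs: Gibbs sampling; a sequence that several methods proposed may carry one label only). In AlphaSeq, yeast of one mating type display the scFv and yeast of the other type display the target. Binding brings cells together so that they mate, and sequencing counts the barcode pairs among the diploids. Each replicate has its own calibration line, from reference interactions of the BCL2 family. The assay was run in six technical replicates.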

Parent: Ab-14, a human scFv built as VH, three GGGGS repeats, VL. Only the CDRs of the light chain vary.
VH: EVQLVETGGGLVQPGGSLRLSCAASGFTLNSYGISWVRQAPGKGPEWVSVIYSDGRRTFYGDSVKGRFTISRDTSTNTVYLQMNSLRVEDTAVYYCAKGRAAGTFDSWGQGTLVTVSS
VL: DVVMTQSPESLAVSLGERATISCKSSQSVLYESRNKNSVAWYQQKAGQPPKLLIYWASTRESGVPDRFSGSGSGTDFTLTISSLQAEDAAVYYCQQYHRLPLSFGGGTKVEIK

The parent's light chain CDRs are KSSQSVLYESRNKNSVA, WASTRES, QQYHRLPLS; each variant's own CDRs replace them letter for letter.
Numbers give log10(Kd / nM), so 0 is 1 nM and 3 is 1 µM. Smaller is tighter.
A mean of the replicates is given; it leaves out those without a signal.
"not detected" marks a missing value. The strain was present, yet no cells mated with the target were sequenced in any replicate, which points to weak or no binding.
Of ten entries with the parent sequence, four were seen in most replicates (averages 0.34 to 2.37), three in one and three in none, so single entries are noisy.
As a blank, each scFv also met three strains without target: over all light chain designs, 4% of these pairings were detected, typically at 2.64 and seldom below 1.59.
The authors averaged sequences with at least three values out of six and counted those with two or fewer as poor binders.
The range of this assay differs from that of the first round, and the authors advise against merging the two.

{"CDR-L1": "KSMQSVLYESRNKNSVA", "CDR-L2": "WASTREV", "CDR-L3": "QQYHRLPLD", "group": "Ctrl", "log10 Kd (nM), mean": "2.78", "detected": "2 of 6"}
{"CDR-L1": "HVPNYTENFMSAKQNIA", "CDR-L2": "DQSARTS", "CDR-L3": "QQYDRLPLA", "group": "En_Gibbs", "log10 Kd (nM), mean": "0.75", "detected": "6 of 6"}
{"CDR-L1": "KSSQSVLDESSNKGSVA", "CDR-L2": "WASTREK", "CDR-L3": "QTYHRPPLS", "group": "Ctrl", "log10 Kd (nM), mean": "1.60", "detected": "6 of 6"}
{"CDR-L1": "MITAVMYAENESWSSIA", "CDR-L2": "DKEISVN", "CDR-L3": "QQYDRLPLD", "group": "En_Gibbs", "log10 Kd (nM), mean": "2.54", "detected": "2 of 6"}
{"CDR-L1": "KSSLSVLYETDQKNSVA", "CDR-L2": "WASTRES", "CDR-L3": "QQYHMLPLW", "group": "Ctrl", "log10 Kd (nM), mean": "not detected", "detected": "0 of 6"}
{"CDR-L1": "KFAEQIMHVYQGANAIA", "CDR-L2": "DVTNKSA", "CDR-L3": "QQYLRLPLM", "group": "En_Gibbs", "log10 Kd (nM), mean": "1.57", "detected": "6 of 6"}
{"CDR-L1": "KVDSSVNYGQRNKNSVA", "CDR-L2": "DASQRES", "CDR-L3": "QQYHRLPLS", "group": "GP_Gibbs", "log10 Kd (nM), mean": "-0.11", "detected": "6 of 6"}
{"CDR-L1": "KIPQGVLYESRNKNSVA", "CDR-L2": "GASTRES", "CDR-L3": "QQYHRLPLS", "group": "GP_HC", "log10 Kd (nM), mean": "-0.16", "detected": "6 of 6"}
{"CDR-L1": "KVSQSDLYESRNKNSVA", "CDR-L2": "NASYRES", "CDR-L3": "QQYHRLPLS", "group": "GP_Gen", "log10 Kd (nM), mean": "0.20", "detected": "6 of 6"}
{"CDR-L1": "SMSNAQFNPDNWKNSIA", "CDR-L2": "DAEHVAY", "CDR-L3": "QQYSRLPIT", "group": "En_Gibbs", "log10 Kd (nM), mean": "0.35", "detected": "6 of 6"}
{"CDR-L1": "KPQQSVLYESRNENSVA", "CDR-L2": "QASTREP", "CDR-L3": "QQYHRLPLS", "group": "Ctrl", "log10 Kd (nM), mean": "-0.11", "detected": "6 of 6"}
{"CDR-L1": "KISQDYEYESRNKNSVA", "CDR-L2": "QASTREV", "CDR-L3": "QQYHRLPLS", "group": "GP_Gibbs", "log10 Kd (nM), mean": "0.58", "detected": "6 of 6"}
{"CDR-L1": "KSSQSVLDQSRNKNSVA", "CDR-L2": "DASQRES", "CDR-L3": "QQYHRLPLS", "group": "GP_HC", "log10 Kd (nM), mean": "0.04", "detected": "6 of 6"}
{"CDR-L1": "KSSQSVLYESRNKNHVA", "CDR-L2": "WASTRES", "CDR-L3": "QQHHRLPLS", "group": "Ctrl", "log10 Kd (nM), mean": "2.44", "detected": "6 of 6"}
{"CDR-L1": "KYSFSDGNESRNKNSVA", "CDR-L2": "EASTRES", "CDR-L3": "QQYHRLPLS", "group": "GP_Gibbs", "log10 Kd (nM), mean": "0.04", "detected": "6 of 6"}
{"CDR-L1": "KVLQSVVYEGRNKNSVA", "CDR-L2": "SASTRED", "CDR-L3": "QQYHRLPLS", "group": "GP_HC", "log10 Kd (nM), mean": "1.11", "detected": "6 of 6"}
{"CDR-L1": "KFSQSVLYESRVKNSVA", "CDR-L2": "EASTRES", "CDR-L3": "QQYHRLPLS", "group": "GP_HC", "log10 Kd (nM), mean": "-0.31", "detected": "6 of 6"}
{"CDR-L1": "KSSISYLYESMNKNSVA", "CDR-L2": "MGSTRES", "CDR-L3": "QQYHRLPLS", "group": "GP_HC", "log10 Kd (nM), mean": "0.83", "detected": "6 of 6"}
{"CDR-L1": "KVRQSNLYESRNKNSVA", "CDR-L2": "NASTRES", "CDR-L3": "QQYHRLPLS", "group": "GP_HC", "log10 Kd (nM), mean": "0.13", "detected": "6 of 6"}
{"CDR-L1": "KLYMITGYESRNADSIA", "CDR-L2": "DNSTRGR", "CDR-L3": "QQYHRLPLS", "group": "En_HC", "log10 Kd (nM), mean": "1.58", "detected": "6 of 6"}
{"CDR-L1": "KSSQSYLYESTNCNNVA", "CDR-L2": "WASTRES", "CDR-L3": "QQYHRLPLS", "group": "Ctrl", "log10 Kd (nM), mean": "2.30", "detected": "1 of 6"}
{"CDR-L1": "HSSPSWLYESRNKNSVA", "CDR-L2": "NASTRES", "CDR-L3": "QQYHRLPLS", "group": "GP_HC", "log10 Kd (nM), mean": "-0.39", "detected": "6 of 6"}
{"CDR-L1": "KSSQSDLYESRNKNSVA", "CDR-L2": "WASTRQS", "CDR-L3": "QQYHRLPLS", "group": "Ctrl", "log10 Kd (nM), mean": "1.92", "detected": "6 of 6"}
{"CDR-L1": "KISMLHNQTFEQSNNVA", "CDR-L2": "EMATREK", "CDR-L3": "QQYNRLPLS", "group": "En_Gen", "log10 Kd (nM), mean": "0.89", "detected": "6 of 6"}
{"CDR-L1": "KQSCGELYGSRNKNSVA", "CDR-L2": "DASQREE", "CDR-L3": "QQYHRLPLS", "group": "GP_Gibbs", "log10 Kd (nM), mean": "0.17", "detected": "6 of 6"}
{"CDR-L1": "LISGVIDYGSRNYNSVA", "CDR-L2": "QTSTRES", "CDR-L3": "QQYDRLPLE", "group": "En_HC", "log10 Kd (nM), mean": "1.69", "detected": "6 of 6"}

Top 3 of the variants detected in all replicates, tightest first:

{"CDR-L1": "HSSPSWLYESRNKNSVA", "CDR-L2": "NASTRES", "CDR-L3": "QQYHRLPLS", "group": "GP_HC", "log10 Kd (nM), mean": "-0.39", "detected": "6 of 6"}
{"CDR-L1": "KFSQSVLYESRVKNSVA", "CDR-L2": "EASTRES", "CDR-L3": "QQYHRLPLS", "group": "GP_HC", "log10 Kd (nM), mean": "-0.31", "detected": "6 of 6"}
{"CDR-L1": "KIPQGVLYESRNKNSVA", "CDR-L2": "GASTRES", "CDR-L3": "QQYHRLPLS", "group": "GP_HC", "log10 Kd (nM), mean": "-0.16", "detected": "6 of 6"}